# Results taken from US20060035889A1, “Treatment for methamphetamine addiction and reduction of methamphetamine use using serotonin antagonists” (priority 2004, published 2006).
# Test system: METH-sensitized rats
# Test: Reversal of METH-induced behavioral sensitization by 5-HT2A/2C antagonists (motor activity after acute METH challenge)
# Details: rat, in vivo
# Source text: Automation of observational evaluations was accomplished using computerized small animal monitors (AccuScan Instr. Inc., Columbus, Ohio). […] One feature of drug-induced behavioral sensitization is heterogeneity of motor responses and the AccuScan monitors quantify numerous behavioral indices. This is a critical point for the motor profile is exquisitely related to METH dose, the drug history of the rat and observation time. After 3- or 31-days of withdrawal from repeated METH injections, rats were allowed to achieve baseline motor activity with a 30 min habituation period, challenged with 1 mg/kg sc METH and monitored for 90 min. As shown in FIGS. 1a-b, a “sensitized” motor response was clearly expressed in the METH-pretreatment group to the METH challenge at the 3-day withdrawal period for both Horizontal Activity and Stereotypy Counts (data not shown) and with slight early effects on Vertical Movements.
# Multiple 5-HT2A/2C antagonists with differing pharmacological profiles were tested for their ability to ameliorate METH-induced behavioral sensitization when administered after sensitization has developed. […]. The doses were selected based on the antagonists' ability to block 5-HT2A- and 5-HT2C-mediated activity and their pharmacokinetic profiles. […]
smiles,measurement,value
CN1CCN2c3ccccc3Cc3ccccc3C2C1 (stereo not shown) [mianserin],METH response on horizontal activity,Some attenuation
